Measured values as given in patent US20120039826A1, “COSMETIC COMPOSITION FOR SKIN LIGHTENING” (priority 2009, published 2012).

Tested on: Keratinocytes (HaCaT cells)
Experiment: Keratinocyte differentiation assay
Assay type: cell-based
Conditions: HaCaT cells cultured with active 24 hours, acridine orange, % of control (control = 100)
Experimental: Keratinocyte Differentiation Assay
This is an in vitro cell culture based assay to evaluate the capability of these actives to alter cell differentiation process. Keratinocytes (HaCaT cells—5×10^4 cells/well) were grown in 24 well plates for 24 hours. These proliferating keratinocytes were further cultured with actives for 24 hours. Cells were then washed with PBS and stained with acridine orange in PBS (Sigma Chemical Co, USA). Cells were washed 15 minutes later and viewed using an epi-fluorescent microscope (Olympus BX 50), at 20× magnification, using appropriate excitation and barrier filters, to simultaneously view red and green fluorescence (excitation: 460 nm and emission >515 nm). The entire plate was scanned and the percentage of differentiated keratinocytes (cells with red fluorescence evenly distributed within the cytoplasm) was estimated. Data were represented as % of control. Higher % values indicate increased cell differentiation. The efficacy of various substances in the cell differentiation assay is tabulated below.

**Q.** With `CC(=O)[O-].[K+]` [Potassium acetate] as the compound, how does the “% Differentiation” value (concentration 0.002%) read?
**A.** 250%

**Q.** What about the “% Differentiation” value (concentration 0.01%) of the same compound?
**A.** 253%
